Measurements taken from US12582645B2, “Chemokine CXCR4 receptor modulators and uses related thereto” (Emory University, priority 2017, dated 2026).

Chains of the proteins cited; added tags and fusions are not shown.
UniProt P61073, whole entry: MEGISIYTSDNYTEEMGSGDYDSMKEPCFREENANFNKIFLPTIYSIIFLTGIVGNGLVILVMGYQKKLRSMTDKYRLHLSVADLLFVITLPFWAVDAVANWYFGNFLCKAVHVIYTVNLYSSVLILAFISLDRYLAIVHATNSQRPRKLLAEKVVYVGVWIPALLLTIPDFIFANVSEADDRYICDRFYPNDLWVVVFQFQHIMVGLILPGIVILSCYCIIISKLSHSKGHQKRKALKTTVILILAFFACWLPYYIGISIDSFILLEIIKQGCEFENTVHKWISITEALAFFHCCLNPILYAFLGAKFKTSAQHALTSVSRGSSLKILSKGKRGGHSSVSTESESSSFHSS

Target: T1, CXCR4 (Homo sapiens, UniProt P61073)
T1 construct: Human T lymphoblast cells (CCRF-CEM) expressing endogenous CXCR4 receptors; endogenous in cells; host or cells: CCRF-CEM (human T lymphoblast cells)
Experiment: CXCR4-CEM calcium flux assay, antagonist mode (inhibition of SDF-1α-induced calcium flux)
Assay type: cell-based
Conditions: CCRF-CEM cells expressing endogenous CXCR4, stimulated with 4 nM SDF-1α, read-out: CXCR4 Ca^2+ Flux IC50
Protocol: CXCR4-CEM Calcium Flux Assays
Exemplary compounds of the invention were tested for their ability to induce or inhibit calcium flux in CCRF-CEM cells, a human cell line that endogenously expresses CXCR4. Activation of CXCR4 stimulates G protein signaling which, in CCRF-CEM cells, causes a series of downstream events that leads to the release of intracellular calcium stores, or calcium flux. Calcium ion concentrations can be easily measured using a wide variety of […] calcium indicators and, as a result, calcium flux assays are commonly employed methods for measuring G protein-coupled receptor (GPCR) activity. Because the therapeutic potential of CXCR4 antagonists as anti-cancer agents likely relies on their ability to inhibit CXCR4-mediated G protein signaling, this assay was utilized as a first-pass measure of inhibitor potency.
The cells were then equilibrated to room temperature for 30 minutes before assay. […] For “antagonist mode” assessment, the cells are subsequently incubated for 25 minutes at room temperature. SDF-1α (R&D System Cat #350-NS/CF) was then added at a final concentration of 4 nM to stimulate the cells. Inhibition of SDF-1α-induced calcium flux was monitored by FDSS6000 for 90 seconds.
After correcting for background, EC50 values were determined. […] Inhibition data for the test compound over a range of concentrations was plotted as percentage inhibition of the test compound as compared to an internal control compound.

| IC50 | Compound |
| --- | --- |
| 60.5 nM | c1cncc(CNCc2ccc(CN(C[C@H]3Cc4ccccc4CN3)[C@H]3CCCc4cccnc43)cc2)c1 [EMU219, (S)—N-(4-(((pyridin-3-ylmethyl)amino)methyl)benzyl)-N—(((R)-1,2,3,4-tetrahydroisoquinolin-3-yl)methyl)-5,6,7,8-tetrahydroquinolin-8-amine] |
| 183 nM | c1ccc2c(c1)CN[C@@H](CN(Cc1ccc(CNCC3CCOCC3)cc1)[C@H]1CCCc3cccnc31)C2 [EMU216, (S)—N-(4-((((tetrahydro-2H-pyran-4-yl)methyl)amino)methyl)benzyl)-N—(((R)-1,2,3,4-tetrahydroisoquinolin-3-yl)methyl)-5,6,7,8-tetrahydroquinolin-8-amine] |
| 40.7 nM | C(=C\CN(C[C@H]1Cc2ccccc2CN1)[C@H]1CCCc2cccnc21)/CNCc1ccncc1 [EMU221, (E)-N1-(pyridin-4-ylmethyl)-N4-(((R)-1,2,3,4-tetrahydroisoquinolin-3-yl)methyl)-N4-((S)-5,6,7,8-tetrahydroquinolin-8-yl)but-2-ene-1,4-diamine] |
| 115 nM | NCc1ccc(CN(C[C@H]2Cc3ccccc3CN2)[C@H]2CCCc3cccnc32)cc1 [EMU093, (S)—N-(4-(aminomethyl)benzyl)-N—(((R)-1,2,3,4-tetrahydroisoquinolin-3-yl)methyl)-5,6,7,8-tetrahydroquinolin-8-amine] |
